Data set [1] is described as follows: human liver microsomal stability. It is filed as in vitro ADME. As to conditions: liver microsomes, pH 7.4. (In general: Microsomes from liver hold many membrane-bound enzymes, among them those of drug oxidation.)
The nature of data set [2]: rat liver microsomal stability. The note with it: liver microsomes, pH 7.4. It is filed as in vitro ADME.
The next data set in a line: human plasma stability. As to conditions: pH 7.4. In kind it is in vitro ADME.
The nature of data set [3]: parallel artificial membrane permeability assay. The note with it: Figure 4a, values not given.

Structures are written as SMILES. Non-standard residues stand in square brackets, D forms with d. Residues, ends and D or L forms follow the SMILES beside them. NMeY = CN[C@@H](Cc1ccc(O)cc1)C(=O)O; NMeL = CN[C@@H](CC(C)C)C(=O)O; dNMeL = CN[C@H](CC(C)C)C(=O)O

The text below walks through data of PMC3210067 (Nature chemical biology, 2011).

For the molecule `CC(C)C[C@@H]1NC(=O)[C@H](CC(C)C)N(C)C(=O)[C@@H](CC(C)C)N(C)C(=O)[C@H](CO)NC(=O)[C@H](Cc2ccc(O)cc2)N(C)C(=O)[C@H]2CCCN2C1=O` [3 L^1S] (cyclo(L[dP][NMeY]S[dNMeL][NMeL])), the “drop in RRCK cell permeability relative to 3” value with RRCK cells (single Leu-to-Ser substitution in 3, listed as Leu^4-to-Ser) is given as 85%.
Regarding `CC(C)C[C@@H]1NC(=O)[C@H](Cc2ccc(O)cc2)NC(=O)[C@H]2CCCN2C(=O)[C@H](CC(C)C)NC(=O)[C@H](CC(C)C)NC(=O)[C@@H](CC(C)C)NC1=O` [compound 1, cyclo[Leu, D-Leu, Leu, Leu, D-Pro, Tyr]], the microsomal CLint – broadly, the capacity of the preparation to metabolise the compound, expressed as a volume cleared per time – at 1 µM was determined as 225 µL/min/mg in data set [1] and 243 µL/min/mg in data set [2]. Further, the half-life (in general, how long it takes for the measured level to halve) at 1 µM in “human plasma stability” was more than 6 h.
On to `CC(C)C[C@@H]1NC(=O)[C@H](CC(C)C)NC(=O)[C@@H](CC(C)C)NC(=O)[C@H](Cc2ccc(O)cc2)NC(=O)[C@H]2CCCN2C(=O)[C@H](CC(C)C)NC1=O` [compound 2], for which the intrinsic metabolic clearance (microsomal CLint) at 1 µM stood at 109 µL/min/mg in data set [1] and 47.1 µL/min/mg in data set [2]. Further, the half-life at 1 µM in the data set “human plasma stability” was more than 6 h.
For `CC(C)C[C@@H]1NC(=O)[C@H](Cc2ccc(O)cc2)N(C)C(=O)[C@H]2CCCN2C(=O)[C@H](CC(C)C)NC(=O)[C@H](CC(C)C)N(C)C(=O)[C@@H](CC(C)C)N(C)C1=O` [compound 3], the intrinsic clearance (microsomal CLint) at 1 µM in data set [1] worked out at 110 µL/min/mg; in data set [2], 30.4 µL/min/mg.
Regarding `CC(C)C[C@@H]1NC(=O)[C@H](CC(C)C)N(C)C(=O)[C@@H](CC(C)C)N(C)C(=O)[C@H](Cc2ccc(O)cc2)N(C)C(=O)[C@H]2CCCN2C(=O)[C@H](CC(C)C)N(C)C1=O` [compound 4] (cyclo(L[NMeL][dP][NMeY][dNMeL][NMeL])), the “fold more permeable than corresponding non-methylated precursor (RRCK)” value with RRCK cells (RRCK cells, relative to 1 or 2) lay within 3 to 10 fold. In addition, in data set [3], the “PAMPA permeability (in words)” value was “comparable to that of the orally bioavailable drug propranolol”.
In the case of `CC(C)C[C@@H]1C(=O)N(C)[C@@H](CC(C)C)C(=O)N(C)[C@@H](CC(C)C)C(=O)N2CCC[C@@H]2C(=O)N(C)[C@@H](Cc2ccc(O)cc2)C(=O)N(C)[C@@H](CC(C)C)C(=O)N1C` [compound 5], the “PAMPA permeability (in words)” value in data set [3] is “as low as those of the nonmethylated precursors”.
Still for that read-out and setting: for `CC(C)C[C@@H]1C(=O)N(C)[C@@H](CC(C)C)C(=O)N(C)[C@@H](CC(C)C)C(=O)N(C)[C@@H](CC(C)C)C(=O)N2CCC[C@@H]2C(=O)N(C)[C@@H](Cc2ccc(O)cc2)C(=O)N1C` [compound 6] the value was “as low as those of the nonmethylated precursors”.
